Measurements as given in ChEMBL document CHEMBL1201862, “PubChem BioAssay data set” (2004).

Protein sequences, listed by entry. Tags and fused reporters are not part of them. Lines headed by an entry give the natural chain unless they say otherwise; changes in a name come on top.
UniProt Q9HC29, whole entry: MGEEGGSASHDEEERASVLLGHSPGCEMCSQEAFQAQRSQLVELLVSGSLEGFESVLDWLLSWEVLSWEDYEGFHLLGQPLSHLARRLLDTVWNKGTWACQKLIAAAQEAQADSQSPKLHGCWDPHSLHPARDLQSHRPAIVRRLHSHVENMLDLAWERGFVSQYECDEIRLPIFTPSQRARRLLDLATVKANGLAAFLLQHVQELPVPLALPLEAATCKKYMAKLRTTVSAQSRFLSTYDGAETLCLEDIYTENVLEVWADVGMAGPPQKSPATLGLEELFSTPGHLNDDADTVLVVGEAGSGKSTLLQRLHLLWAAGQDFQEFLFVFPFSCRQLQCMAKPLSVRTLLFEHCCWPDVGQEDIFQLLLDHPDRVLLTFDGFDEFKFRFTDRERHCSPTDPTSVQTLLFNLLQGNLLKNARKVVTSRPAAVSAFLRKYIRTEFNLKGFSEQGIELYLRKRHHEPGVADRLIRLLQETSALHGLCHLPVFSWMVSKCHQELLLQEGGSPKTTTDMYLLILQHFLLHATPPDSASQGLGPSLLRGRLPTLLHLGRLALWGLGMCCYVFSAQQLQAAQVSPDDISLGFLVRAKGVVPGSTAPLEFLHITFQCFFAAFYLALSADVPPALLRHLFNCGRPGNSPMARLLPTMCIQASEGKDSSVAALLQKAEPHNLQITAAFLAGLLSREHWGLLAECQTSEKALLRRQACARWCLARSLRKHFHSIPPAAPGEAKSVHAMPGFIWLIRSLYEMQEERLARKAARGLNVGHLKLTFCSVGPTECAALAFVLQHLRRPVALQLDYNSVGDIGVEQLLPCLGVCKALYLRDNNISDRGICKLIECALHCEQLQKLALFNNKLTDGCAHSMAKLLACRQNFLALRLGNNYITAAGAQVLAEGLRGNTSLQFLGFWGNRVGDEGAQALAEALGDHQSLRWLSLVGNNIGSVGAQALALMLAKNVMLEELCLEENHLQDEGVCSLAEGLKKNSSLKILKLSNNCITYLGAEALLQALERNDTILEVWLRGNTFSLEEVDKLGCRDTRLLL
UniProt P41145: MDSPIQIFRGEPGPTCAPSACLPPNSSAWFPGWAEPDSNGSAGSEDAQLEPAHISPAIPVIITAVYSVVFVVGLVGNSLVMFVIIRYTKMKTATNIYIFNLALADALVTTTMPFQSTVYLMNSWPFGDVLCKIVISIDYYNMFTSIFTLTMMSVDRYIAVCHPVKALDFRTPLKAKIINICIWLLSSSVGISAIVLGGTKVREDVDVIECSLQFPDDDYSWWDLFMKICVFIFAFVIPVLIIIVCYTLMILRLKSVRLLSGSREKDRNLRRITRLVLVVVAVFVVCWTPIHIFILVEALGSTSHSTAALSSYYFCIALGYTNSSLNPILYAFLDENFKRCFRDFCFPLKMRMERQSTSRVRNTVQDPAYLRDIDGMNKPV

How the values were obtained:
[1] = tested on: HEK293; assay: cells; conditions: Homo sapiens;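 further: cells exposed to compound for 14 hours overnight before viability readout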
[2] = molecular target: Nucleotide-binding oligomerization domain-containing protein 2 (Homo sapiens, UniProt Q9HC29); assay: PubChem AID 2334; type: functional
[3] = molecular target: T1, Nucleotide-binding oligomerization domain-containing protein 1 (Homo sapiens, UniProt Q9Y239); assay: NOD1 signaling inhibitors, SAR follow-up, revised (AID 2333); type: functional
T1 sequence (Q9Y239 whole entry): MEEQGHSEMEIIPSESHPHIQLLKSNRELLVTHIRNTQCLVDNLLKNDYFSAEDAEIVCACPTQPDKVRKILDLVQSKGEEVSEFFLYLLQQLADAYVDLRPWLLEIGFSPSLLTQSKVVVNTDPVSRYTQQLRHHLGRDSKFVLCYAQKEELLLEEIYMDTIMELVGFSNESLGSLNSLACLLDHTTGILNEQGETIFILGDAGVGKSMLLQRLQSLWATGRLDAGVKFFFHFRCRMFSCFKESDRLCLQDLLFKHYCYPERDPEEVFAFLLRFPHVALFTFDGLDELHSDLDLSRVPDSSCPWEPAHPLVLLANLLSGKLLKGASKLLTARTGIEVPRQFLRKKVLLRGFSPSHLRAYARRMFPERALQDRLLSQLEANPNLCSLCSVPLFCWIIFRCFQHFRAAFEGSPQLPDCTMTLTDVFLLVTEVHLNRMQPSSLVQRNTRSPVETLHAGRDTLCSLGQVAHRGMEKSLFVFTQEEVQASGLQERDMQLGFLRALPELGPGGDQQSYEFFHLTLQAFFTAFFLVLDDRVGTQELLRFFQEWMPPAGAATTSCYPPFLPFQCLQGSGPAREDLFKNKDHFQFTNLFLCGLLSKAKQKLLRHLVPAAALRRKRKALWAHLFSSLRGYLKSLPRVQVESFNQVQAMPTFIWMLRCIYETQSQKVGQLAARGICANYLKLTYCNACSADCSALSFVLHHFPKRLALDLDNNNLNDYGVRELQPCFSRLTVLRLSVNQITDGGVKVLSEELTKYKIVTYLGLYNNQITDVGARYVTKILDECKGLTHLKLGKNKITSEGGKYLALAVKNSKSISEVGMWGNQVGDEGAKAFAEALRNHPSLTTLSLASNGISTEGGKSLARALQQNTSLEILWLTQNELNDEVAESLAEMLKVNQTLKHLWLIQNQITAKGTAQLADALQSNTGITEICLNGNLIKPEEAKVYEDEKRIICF

[4] = molecular target: T2, Kappa-type opioid receptor (Homo sapiens, UniProt P41145); assay: SAR analysis of small molecule antagonists of the kappa opioid receptor via a luminescent beta-arrestin assay - Set 6. [Related pubchem assays (depositor defined):AID1777, AID1778, AID1785, AID1786, AID1966, AID2133, AID2136, AID2285]; type: functional
[5] = molecular target: T2, Kappa-type opioid receptor; assay: SAR analysis of small molecule antagonists of the kappa opioid receptor via a luminescent beta-arrestin assay - Set 3. [Related pubchem assays (depositor defined):AID1777, AID1778, AID1785, AID1786, AID1966, AID2133, AID2136, AID2285, AID2495]; type: functional
[6] = molecular target: T3, Replicative DNA helicase DnaB (Mycobacterium tuberculosis, UniProt P9WMR3); assay: DnaB intein splicing inhibitors, dose response, biochemical, cell-free fluorescence (AID 449749); type: functional
T3 sequence (P9WMR3 whole entry): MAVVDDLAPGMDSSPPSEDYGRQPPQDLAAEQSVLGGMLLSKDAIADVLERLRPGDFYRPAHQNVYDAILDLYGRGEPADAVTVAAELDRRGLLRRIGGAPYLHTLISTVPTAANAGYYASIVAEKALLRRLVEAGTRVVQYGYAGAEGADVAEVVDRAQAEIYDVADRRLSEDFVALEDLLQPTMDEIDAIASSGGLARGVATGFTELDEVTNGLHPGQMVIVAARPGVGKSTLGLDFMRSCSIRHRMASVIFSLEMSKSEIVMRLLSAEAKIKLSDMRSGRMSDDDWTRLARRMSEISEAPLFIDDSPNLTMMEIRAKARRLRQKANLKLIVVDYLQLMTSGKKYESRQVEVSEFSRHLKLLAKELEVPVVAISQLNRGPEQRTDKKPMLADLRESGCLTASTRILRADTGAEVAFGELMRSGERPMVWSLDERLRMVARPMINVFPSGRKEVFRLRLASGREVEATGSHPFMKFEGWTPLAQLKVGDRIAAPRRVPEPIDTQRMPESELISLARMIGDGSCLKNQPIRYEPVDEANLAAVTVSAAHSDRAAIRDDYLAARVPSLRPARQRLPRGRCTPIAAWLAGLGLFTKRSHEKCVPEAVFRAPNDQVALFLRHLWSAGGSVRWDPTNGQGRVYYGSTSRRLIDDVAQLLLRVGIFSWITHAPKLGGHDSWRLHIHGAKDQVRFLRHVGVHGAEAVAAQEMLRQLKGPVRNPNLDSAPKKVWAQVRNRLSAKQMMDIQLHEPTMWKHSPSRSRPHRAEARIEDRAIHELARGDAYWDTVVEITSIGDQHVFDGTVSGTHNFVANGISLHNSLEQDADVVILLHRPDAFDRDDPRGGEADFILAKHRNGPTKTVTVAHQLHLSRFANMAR

## Nc1nc2ccccc2n1Cc1ccc(Cl)cc1
[1]
  IC50: inactive: > 20000 nM
[2]
  IC50: active: 11800 nM
[3]
  IC50: active: 9.5 µM and active: 7.73 µM

## Nc1nc2ccccc2n1C(=O)c1ccc(Cl)cc1Cl
[3]
  IC50: active: 2.84 µM

## COc1ccc(N2CCN(CCCNC(=O)Cn3c(=O)c4cccn4c4c(C)ccnc43)CC2)cc1
[4]
  IC50: active: 164 nM
[5]
  IC50: active: 77.4 nM

## Clc1ccc(COC(Cn2ccnc2)c2ccc(Cl)cc2Cl)c(Cl)c1 (configuration not stated) [MICONAZOLE NITRATE]
[6]
  AC50: active: 2740 nM

Several values for one entry are separate records, joined by “and”; a condition that tells them apart may be missing. Identical values can stand only once. Activity calls are given as the source filed them.
